Target: T1, matriptase (Homo sapiens, UniProt Q9Y5Y6)
T1 construct: made in house
T1 sequence (Q9Y5Y6 615-855 limits assumed): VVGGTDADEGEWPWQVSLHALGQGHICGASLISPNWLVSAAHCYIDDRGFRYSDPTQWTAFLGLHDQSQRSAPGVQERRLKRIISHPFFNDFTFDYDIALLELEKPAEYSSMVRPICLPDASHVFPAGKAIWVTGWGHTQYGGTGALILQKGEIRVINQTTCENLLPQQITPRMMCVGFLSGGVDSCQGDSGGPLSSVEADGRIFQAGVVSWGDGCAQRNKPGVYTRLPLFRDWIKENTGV
Test: Matriptase enzyme inhibition assay with chromogenic substrate Boc-QAR-pNA
Assay type: biochemical
Conditions: for ΔBG(x) − ΔBG(SFTI-1[1, 14]): difference in free energy of binding/dissociation, ΔBG = −RTlnKi; for ΔBG(x) − ΔBG(SFTI-1[1, 14]) / Relative Activity: matriptase, pH 7.6 (Table 1); for Relative Activity: ratio Ki of compound / Ki of SFTI-1[1,14]
Description: Recombinant production, autocatalytic activation and purification of matriptase were conducted as previously described. Bovine trypsin was purchased from Sigma-Aldrich. Active-site titration and determination of Michaelis-Menten constants KM for the chromogenic substrate Boc-QAR-pNA was performed as reported earlier.
All experiments were performed in triplicate. […] Slopes of the initial reaction velocities (steady-state) were calculated and normalized to the data of the uninhibited enzymatic hydrolysis of Boc-QAR-pNA. The determined v/v0 values were plotted against the concentration of the inhibitor.
Errors were calculated through propagation of errors (compare Tischler et al.).[17]

SMILES	Ki [nM]	further results
CC[C@H](C)[C@@H]1NC(=O)[C@@H]2CCCN2C(=O)[C@@H]2CCCN2C(=O)[C@H](Cn2cc(CN)nn2)NC(=O)[C@H](CO)NC(=O)[C@H](CCCCN)NC(=O)[C@H]([C@@H](C)O)NC(=O)[C@@H](NC(=O)[C@H](CCCNC(=N)N)NC(=O)CN)CSSC[C@@H](C(=O)N[C@@H](Cc2ccccc2)C(=O)N2CCC[C@H]2C(=O)N[C@@H](CC(=O)O)C(=O)O)NC1=O [Compound 1]	4890 ± 663	–
CC[C@H](C)[C@@H]1NC(=O)[C@@H]2CCCN2C(=O)[C@@H]2CCCN2C(=O)[C@H](CCn2cc(CN)nn2)NC(=O)[C@H](CO)NC(=O)[C@H](CCCCN)NC(=O)[C@H]([C@@H](C)O)NC(=O)[C@@H](NC(=O)[C@H](CCCNC(=N)N)NC(=O)CN)CSSC[C@@H](C(=O)N[C@@H](Cc2ccccc2)C(=O)N2CCC[C@H]2C(=O)N[C@@H](CC(=O)O)C(=O)O)NC1=O [Compound 2]	3820 ± 494	–
CC[C@H](C)[C@@H]1NC(=O)[C@@H]2CCCN2C(=O)[C@@H]2CCCN2C(=O)[C@H](Cn2cc(C(=O)O)nn2)NC(=O)[C@H](CO)NC(=O)[C@H](CCCCN)NC(=O)[C@H]([C@@H](C)O)NC(=O)[C@@H](NC(=O)[C@H](CCCNC(=N)N)NC(=O)CN)CSSC[C@@H](C(=O)N[C@@H](Cc2ccccc2)C(=O)N2CCC[C@H]2C(=O)N[C@@H](CC(=O)O)C(=O)O)NC1=O [Compound 3]	13900 ± 1710	–
CC[C@H](C)[C@@H]1NC(=O)[C@@H]2CCCN2C(=O)[C@@H]2CCCN2C(=O)[C@H](CCn2cc(C(=O)O)nn2)NC(=O)[C@H](CO)NC(=O)[C@H](CCCCN)NC(=O)[C@H]([C@@H](C)O)NC(=O)[C@@H](NC(=O)[C@H](CCCNC(=N)N)NC(=O)CN)CSSC[C@@H](C(=O)N[C@@H](Cc2ccccc2)C(=O)N2CCC[C@H]2C(=O)N[C@@H](CC(=O)O)C(=O)O)NC1=O [Compound 4]	2380 ± 291	–
CC[C@H](C)[C@@H]1NC(=O)[C@@H]2CCCN2C(=O)[C@@H]2CCCN2C(=O)[C@H](Cn2cc(C(=O)OC)nn2)NC(=O)[C@H](CO)NC(=O)[C@H](CCCCN)NC(=O)[C@H]([C@@H](C)O)NC(=O)[C@@H](NC(=O)[C@H](CCCNC(=N)N)NC(=O)CN)CSSC[C@@H](C(=O)N[C@@H](Cc2ccccc2)C(=O)N2CCC[C@H]2C(=O)N[C@@H](CC(=O)O)C(=O)O)NC1=O [Compound 5]	1630 ± 200	–
CC[C@H](C)[C@@H]1NC(=O)[C@@H]2CCCN2C(=O)[C@@H]2CCCN2C(=O)[C@H](CCn2cc(C(=O)OC)nn2)NC(=O)[C@H](CO)NC(=O)[C@H](CCCCN)NC(=O)[C@H]([C@@H](C)O)NC(=O)[C@@H](NC(=O)[C@H](CCCNC(=N)N)NC(=O)CN)CSSC[C@@H](C(=O)N[C@@H](Cc2ccccc2)C(=O)N2CCC[C@H]2C(=O)N[C@@H](CC(=O)O)C(=O)O)NC1=O [Compound 6]	10900 ± 1350	–
CC[C@H](C)[C@@H]1NC(=O)[C@@H]2CCCN2C(=O)[C@@H]2CCCN2C(=O)[C@H](Cn2cc(-c3ccccc3)nn2)NC(=O)[C@H](CO)NC(=O)[C@H](CCCCN)NC(=O)[C@H]([C@@H](C)O)NC(=O)[C@@H](NC(=O)[C@H](CCCNC(=N)N)NC(=O)CN)CSSC[C@@H](C(=O)N[C@@H](Cc2ccccc2)C(=O)N2CCC[C@H]2C(=O)N[C@@H](CC(=O)O)C(=O)O)NC1=O [Compound 7]	3340 ± 414	–
CC[C@H](C)[C@@H]1NC(=O)[C@@H]2CCCN2C(=O)[C@@H]2CCCN2C(=O)[C@H](CCn2cc(-c3ccccc3)nn2)NC(=O)[C@H](CO)NC(=O)[C@H](CCCCN)NC(=O)[C@H]([C@@H](C)O)NC(=O)[C@@H](NC(=O)[C@H](CCCNC(=N)N)NC(=O)CN)CSSC[C@@H](C(=O)N[C@@H](Cc2ccccc2)C(=O)N2CCC[C@H]2C(=O)N[C@@H](CC(=O)O)C(=O)O)NC1=O [Compound 8]	1250 ± 155	–
CC[C@H](C)[C@@H]1NC(=O)[C@H](CO)NC(=O)[C@H](CCCCN)NC(=O)[C@H]([C@@H](C)O)NC(=O)[C@@H](NC(=O)[C@H](CCCNC(=N)N)NC(=O)CN)CSSC[C@@H](C(=O)N[C@@H](Cc2ccccc2)C(=O)N2CCC[C@H]2C(=O)N[C@@H](CC(=O)O)C(=O)O)NC(=O)[C@H](Cn2cc(CN)nn2)NC(=O)[C@@H]2CCCN2C(=O)[C@@H]2CCCN2C1=O [Compound 9]	148 ± 19	–
CC[C@H](C)[C@@H]1NC(=O)[C@H](CO)NC(=O)[C@H](CCCCN)NC(=O)[C@H]([C@@H](C)O)NC(=O)[C@@H](NC(=O)[C@H](CCCNC(=N)N)NC(=O)CN)CSSC[C@@H](C(=O)N[C@@H](Cc2ccccc2)C(=O)N2CCC[C@H]2C(=O)N[C@@H](CC(=O)O)C(=O)O)NC(=O)[C@H](CCn2cc(CN)nn2)NC(=O)[C@@H]2CCCN2C(=O)[C@@H]2CCCN2C1=O [Compound 10]	513 ± 66	–
CC[C@H](C)[C@@H]1NC(=O)[C@H](CO)NC(=O)[C@H](CCCCN)NC(=O)[C@H]([C@@H](C)O)NC(=O)[C@@H](NC(=O)[C@H](CCCNC(=N)N)NC(=O)CN)CSSC[C@@H](C(=O)N[C@@H](Cc2ccccc2)C(=O)N2CCC[C@H]2C(=O)N[C@@H](CC(=O)O)C(=O)O)NC(=O)[C@H](Cn2cc(C(=O)O)nn2)NC(=O)[C@@H]2CCCN2C(=O)[C@@H]2CCCN2C1=O [Compound 11]	46300 ± 5730	–
CC[C@H](C)[C@@H]1NC(=O)[C@H](CO)NC(=O)[C@H](CCCCN)NC(=O)[C@H]([C@@H](C)O)NC(=O)[C@@H](NC(=O)[C@H](CCCNC(=N)N)NC(=O)CN)CSSC[C@@H](C(=O)N[C@@H](Cc2ccccc2)C(=O)N2CCC[C@H]2C(=O)N[C@@H](CC(=O)O)C(=O)O)NC(=O)[C@H](CCn2cc(C(=O)O)nn2)NC(=O)[C@@H]2CCCN2C(=O)[C@@H]2CCCN2C1=O [Compound 12]	8100 ± 1010	–
CC[C@H](C)[C@@H]1NC(=O)[C@H](CO)NC(=O)[C@H](CCCCN)NC(=O)[C@H]([C@@H](C)O)NC(=O)[C@@H](NC(=O)[C@H](CCCNC(=N)N)NC(=O)CN)CSSC[C@@H](C(=O)N[C@@H](Cc2ccccc2)C(=O)N2CCC[C@H]2C(=O)N[C@@H](CC(=O)O)C(=O)O)NC(=O)[C@H](Cn2cc(C(=O)OC)nn2)NC(=O)[C@@H]2CCCN2C(=O)[C@@H]2CCCN2C1=O [Compound 13]	208 ± 27	–
CC[C@H](C)[C@@H]1NC(=O)[C@H](CO)NC(=O)[C@H](CCCCN)NC(=O)[C@H]([C@@H](C)O)NC(=O)[C@@H](NC(=O)[C@H](CCCNC(=N)N)NC(=O)CN)CSSC[C@@H](C(=O)N[C@@H](Cc2ccccc2)C(=O)N2CCC[C@H]2C(=O)N[C@@H](CC(=O)O)C(=O)O)NC(=O)[C@H](CCn2cc(C(=O)OC)nn2)NC(=O)[C@@H]2CCCN2C(=O)[C@@H]2CCCN2C1=O [Compound 14]	2220 ± 277	–
CC[C@H](C)[C@@H]1NC(=O)[C@H](CO)NC(=O)[C@H](CCCCN)NC(=O)[C@H]([C@@H](C)O)NC(=O)[C@@H](NC(=O)[C@H](CCCNC(=N)N)NC(=O)CN)CSSC[C@@H](C(=O)N[C@@H](Cc2ccccc2)C(=O)N2CCC[C@H]2C(=O)N[C@@H](CC(=O)O)C(=O)O)NC(=O)[C@H](Cn2cc(-c3ccccc3)nn2)NC(=O)[C@@H]2CCCN2C(=O)[C@@H]2CCCN2C1=O [Compound 15]	556 ± 70	–
CC[C@H](C)[C@@H]1NC(=O)[C@H](CO)NC(=O)[C@H](CCCCN)NC(=O)[C@H]([C@@H](C)O)NC(=O)[C@@H](NC(=O)[C@H](CCCNC(=N)N)NC(=O)CN)CSSC[C@@H](C(=O)N[C@@H](Cc2ccccc2)C(=O)N2CCC[C@H]2C(=O)N[C@@H](CC(=O)O)C(=O)O)NC(=O)[C@H](CCn2cc(-c3ccccc3)nn2)NC(=O)[C@@H]2CCCN2C(=O)[C@@H]2CCCN2C1=O [Compound 16]	4750 ± 585	–
CC[C@H](C)[C@@H]1NC(=O)[C@H](CO)NC(=O)[C@H](CCCCN)NC(=O)[C@H]([C@@H](C)O)NC(=O)[C@@H](NC(=O)[C@H](CCCNC(=N)N)NC(=O)CN)CSSC[C@@H](C(=O)N[C@@H](Cc2ccccc2)C(=O)N2CCC[C@H]2C(=O)N[C@@H](CC(=O)O)C(=O)O)NC(=O)[C@H](CCCCN)NC(=O)[C@@H]2CCCN2C(=O)[C@@H]2CCCN2C1=O [Compound 17]	232 ± 29	ΔBG(x) − ΔBG(SFTI-1[1, 14]): 0.645 ± 0.096 kcal/mol; matriptase affinity / inhibitor potency in words (enzyme inhibition assays, pH 7.6, comparator as worded): slightly less potent than inhibitor 9; Relative Activity: 0.33
CC[C@H](C)[C@@H]1NC(=O)[C@H](CO)NC(=O)[C@H](CCCCN)NC(=O)[C@H]([C@@H](C)O)NC(=O)[C@@H](NC(=O)[C@H](CCCNC(=N)N)NC(=O)CN)CSSC[C@@H](C(=O)N[C@@H](Cc2ccccc2)C(=O)N2CCC[C@H]2C(=O)N[C@@H](CC(=O)O)C(=O)O)NC(=O)[C@H](CCCNC(=N)N)NC(=O)[C@@H]2CCCN2C(=O)[C@@H]2CCCN2C1=O [Compound 18]	50.6 ± 6.5	–
CC[C@H](C)[C@@H]1NC(=O)[C@@H]2CCCN2C(=O)[C@@H]2CCCN2C(=O)[C@H]([C@@H](C)CC)NC(=O)[C@H](CO)NC(=O)[C@H](CCCCN)NC(=O)[C@H]([C@@H](C)O)NC(=O)[C@@H](NC(=O)[C@H](CCCNC(=N)N)NC(=O)CN)CSSC[C@@H](C(=O)N[C@@H](C)C(=O)N2CCC[C@H]2C(=O)N[C@@H](CC(=O)O)C(=O)O)NC1=O [Compound 19]	1610 ± 206	ΔBG(x) − ΔBG(SFTI-1[1, 14]): -0.502 ± 0.096 kcal/mol; Relative Activity: 2.3
CC[C@H](C)[C@@H]1NC(=O)[C@@H]2CCCN2C(=O)[C@@H]2CCCN2C(=O)[C@H]([C@@H](C)CC)NC(=O)[C@H](CO)NC(=O)[C@H](CCCCN)NC(=O)[C@H]([C@@H](C)O)NC(=O)[C@@H](NC(=O)[C@H](CCCNC(=N)N)NC(=O)CN)CSSC[C@@H](C(=O)N[C@H](C(=O)N2CCC[C@H]2C(=O)N[C@@H](CC(=O)O)C(=O)O)C(C)C)NC1=O [Compound 20]	580 ± 72	–
